## Antibody variant affinities, Ab-95 light chain, assay 2

Data: MIT Lincoln Laboratory AlphaSeq set, Engelhart et al. 2022, doi:10.1038/s41597-022-01779-4, as distributed in FLAb.

All variants were tested on one target, the spike HR2 peptide PDVDLGDISGINAS (SARS-CoV-2).

Parent scFv Ab-95: VH joined to VL by three GGGGS repeats. Changes lie in the light chain CDRs alone.
VH: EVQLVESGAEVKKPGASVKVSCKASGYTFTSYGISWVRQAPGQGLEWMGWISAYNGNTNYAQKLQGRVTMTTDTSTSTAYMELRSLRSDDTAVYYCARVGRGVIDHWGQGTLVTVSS
VL: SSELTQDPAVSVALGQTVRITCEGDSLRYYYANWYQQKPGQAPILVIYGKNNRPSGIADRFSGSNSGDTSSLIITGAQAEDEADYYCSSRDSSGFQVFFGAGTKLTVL

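The parent was found by panning a naive human phage display library on the peptide. Variants in AAYL52 differ from the parent at up to three CDR positions; double and triple changes were sampled at random. The assay is AlphaSeq: two haploid yeast populations carry antibody and antigen on their surface. Binding brings cells together so that they mate, and sequencing counts the barcode pairs among the diploids. Read counts were normalised to the haploid input and turned into Kd by a linear fit to BCL2-family pairs of known affinity, for each replicate. The assay was run in three technical replicates.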

Positions count from residue 1 of the parent VL; D25Q puts Q in place of D.
Every variant below is changed at V97 of the VL (sequential numbering).
Each Kd is an estimate from the mating assay, the geometric mean of the replicates in which the pair was seen; lower is stronger.
Where no diploid with the target was found in any replicate, the entry reads "no signal": below detection, most likely a poor binder, though not proof of it.
Entries are sorted by rising average, undetected variants last.
Parent in this assay: reference entry 200 nM, copy in this library 180 nM.
As a blank, each scFv also met three strains without target: over library AAYL52, 28% of these pairings were detected, typically at 8.2 µM and seldom below 800 nM. The control count says in how many pairings with the empty strains this scFv gave a signal.

Variant D25Q+Y30Q+V97P gave 17 nM (3 of 3 replicates; controls 0 of 9). With Y31N+P54W+V97K the result was 25 nM (3 of 3 replicates; controls 1 of 9). With D25H+R28N+V97T the result was 62 nM (3 of 3 replicates; controls 2 of 9). Variant Y30L+Y31S+V97H gave 80 nM (3 of 3 replicates; controls 6 of 9). With Y31N+P54N+V97I the result was 110 nM (3 of 3 replicates; controls 1 of 9). For E23G+R28K+V97G, the assay gave 140 nM (3 of 3 replicates; controls 5 of 9). With S93E+G94Y+V97S the result was 150 nM (3 of 3 replicates; controls 1 of 9).

With G24E+F95K+V97H the result was 190 nM (3 of 3 replicates; controls 1 of 9). With R90Y+V97G the result was 280 nM (3 of 3 replicates; controls 3 of 9). Variant S26A+Y29A+V97Q showed 360 nM (3 of 3 replicates; controls 1 of 9). For Y29T+V97F, the assay gave 450 nM (3 of 3 replicates; controls 0 of 9). For P54K+R90E+V97E, the assay gave 500 nM (3 of 3 replicates; controls 3 of 9). With Y30K+P54T+V97W the result was 520 nM (1 of 3 replicates; controls 0 of 9). Variant K50L+V97N gave 890 nM (2 of 3 replicates; controls 2 of 9).

Variant E23D+G94M+V97L gave 920 nM (1 of 3 replicates; controls 1 of 9). With E23V+S88F+V97F the result was 1.1 µM (3 of 3 replicates; controls 3 of 9). With E23I+V97N+F98E the result was 1.5 µM (2 of 3 replicates; controls 3 of 9). For E23T+S89V+V97K, the assay gave 2.0 µM (3 of 3 replicates; controls 1 of 9). With A32H+K50D+V97R the result was 2.1 µM (2 of 3 replicates; controls 2 of 9). For Y30T+N33L+V97L, the assay gave 2.2 µM (2 of 3 replicates; controls 2 of 9). With Y31C+S55I+V97P the result was 2.6 µM (1 of 3 replicates; controls 3 of 9).

Variant S26Y+D91V+V97W showed 3.2 µM (2 of 3 replicates; controls 4 of 9). With D25S+S26D+V97W the result was 4.5 µM (2 of 3 replicates; controls 1 of 9). For E23Y+S26Y+V97G, the assay gave 4.9 µM (1 of 3 replicates; controls 1 of 9). Variant V97F+F98V gave 5.0 µM (3 of 3 replicates; controls 2 of 9). Variant S26Y+N33W+V97R showed 5.0 µM (1 of 3 replicates; controls 1 of 9). For P54W+S92G+V97I, the assay gave 6.1 µM (3 of 3 replicates; controls 1 of 9). With Y29D+R53L+V97P the result was 7.0 µM (3 of 3 replicates; controls 4 of 9).

Variant R28A+S88R+V97S showed 8.4 µM (2 of 3 replicates; controls 3 of 9). With S26L+A32E+V97W the result was 11 µM (2 of 3 replicates; controls 0 of 9). Variant Y30N+S89Y+V97S showed 12 µM (1 of 3 replicates; controls 2 of 9). With L27Q+F95L+V97P the result was 12 µM (3 of 3 replicates; controls 2 of 9). Variant L27F+G49I+V97S showed 14 µM (2 of 3 replicates; controls 1 of 9). Variant A32W+V97F showed 14 µM (1 of 3 replicates; controls 3 of 9). Variant N52Q+R53S+V97F gave 17 µM (3 of 3 replicates; controls 2 of 9).

With G24F+K50I+V97I the result was 19 µM (2 of 3 replicates; controls 4 of 9). With N33W+G94N+V97K the result was 22 µM (2 of 3 replicates; controls 0 of 9). Variant S26V+N51G+V97Y gave 30 µM (2 of 3 replicates; controls 2 of 9). Variant S55G+S88G+V97S gave 100 µM (1 of 3 replicates; controls 1 of 9). Variant L27P+N52T+V97H showed 190 µM (1 of 3 replicates; controls 0 of 9). Variant E23V+V97A+F98C gave 540 µM (1 of 3 replicates; controls 2 of 9). Variant R28N+R53G+V97M gave 690 µM (1 of 3 replicates; controls 1 of 9).

Variant G24R+D25Y+V97R gave no signal (0 of 3 replicates; controls 1 of 9). For N51M+D91Q+V97Q, the assay gave no signal (0 of 3 replicates; controls 0 of 9). For R53E+S89F+V97T, the assay gave no signal (0 of 3 replicates; controls 1 of 9). Variant R90F+Q96M+V97M showed no signal (0 of 3 replicates; controls 2 of 9). Variant D25L+N51D+V97M gave no signal (0 of 3 replicates; controls 0 of 9). Variant G49I+N51E+V97G gave no signal (0 of 3 replicates; controls 4 of 9). With E23D+R28T+V97W the result was no signal (0 of 3 replicates; controls 0 of 9).

For R53M+G94D+V97C, the assay gave no signal (0 of 3 replicates; controls 0 of 9). Variant G49T+Q96G+V97K gave no signal (0 of 3 replicates; controls 2 of 9). Variant Y29L+R90F+V97I gave no signal (0 of 3 replicates; controls 1 of 9).

Picked from the list: the 5 lowest averages where every replicate gave a value.

For D25Q+Y30Q+V97P, the assay gave 17 nM (3 of 3 replicates; controls 0 of 9).
For Y31N+P54W+V97K, the assay gave 25 nM (3 of 3 replicates; controls 1 of 9).
For D25H+R28N+V97T, the assay gave 62 nM (3 of 3 replicates; controls 2 of 9).
For Y30L+Y31S+V97H, the assay gave 80 nM (3 of 3 replicates; controls 6 of 9).
For Y31N+P54N+V97I, the assay gave 110 nM (3 of 3 replicates; controls 1 of 9).